Test results published in PMC6628712 (Journal of enzyme inhibition and medicinal chemistry, 2016).

Target: T1, CYP26A1 (Homo sapiens, UniProt O43174)
T1 sequence (O43174 1-497): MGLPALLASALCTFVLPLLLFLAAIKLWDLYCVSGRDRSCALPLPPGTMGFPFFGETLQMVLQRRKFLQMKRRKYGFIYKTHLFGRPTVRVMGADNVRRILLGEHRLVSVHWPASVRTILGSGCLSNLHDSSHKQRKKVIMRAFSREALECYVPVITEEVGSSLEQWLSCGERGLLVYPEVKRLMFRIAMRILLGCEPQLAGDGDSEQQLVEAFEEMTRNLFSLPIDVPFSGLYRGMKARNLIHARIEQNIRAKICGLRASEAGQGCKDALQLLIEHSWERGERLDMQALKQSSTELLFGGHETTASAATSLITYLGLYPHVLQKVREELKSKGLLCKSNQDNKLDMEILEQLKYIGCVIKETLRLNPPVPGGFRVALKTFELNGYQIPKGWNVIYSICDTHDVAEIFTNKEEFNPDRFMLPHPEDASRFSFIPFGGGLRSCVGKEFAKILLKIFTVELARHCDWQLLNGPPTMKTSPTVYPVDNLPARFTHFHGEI
Assay: Inhibition of CYP26A1-catalyzed tazarotenic acid sulfoxide formation
Assay type: biochemical
Conditions: ratio of IC50 values, tazarotenic acid probe

Selectivity for CYP26A1 (versus CYP26B1): 12.0 fold
SMILES: CCc1oc2ccccc2c1C(=O)c1cc(Br)c(O)c(Br)c1 [Benzbromarone]
